From EPA's ToxValDB 9.5 come the findings set out here.

For one data set, the system named is Oryctolagus sp. Particulars: acute; dermal.
For data set [1], the system named is Rattus norvegicus. Conditions: acute; oral.
For data set [2], the system named is Rattus norvegicus. Conditions: short-term; duration: 28 days; oral; gavage; M; Sprague-Dawley; Clinical Observation: Locomotor activity decrease, Respiratory rate decrease, Incomplete eyelid opening Emaciation + Functional ….

By LD50 is commonly meant the dose expected to kill half of the subjects tested. The low end stands for a more toxic substance, the high end for a less toxic substance. In the case of `CCCCCCO` [1-Hexanol], the 50% lethal dose (LD50) with Oryctolagus sp. stood at 3100 mg/kg.

Regarding `Nc1ccc(Cc2ccc(N)c(Cl)c2)cc1Cl` [4,4'-Methylenebis(2-chloroaniline)], the LD50 with Rattus norvegicus [1] was found to be 1140 mg/kg.

Take `CCC(C)(C)c1ccc(O)cc1` [4-(2-Methylbutan-2-yl)phenol]: the LD50 in the data set on Rattus norvegicus [1] was 1830 mg/kg.

For orientation: NOAEL means the highest tested level that showed no adverse finding. Regarding `[K+].[O-][Br+2]([O-])[O-]` [Potassium bromate], in the data set on Rattus norvegicus [2], the NOAEL came to 20 mg/kg-day and the NOEL was under 20 mg/kg-day.
